Assay results as given in PubChem BioAssay AID580 (SRMLSC, 2007).
This is a selection; strong and weak results do not stand in their true shares. Calls of active or inactive are those of the source.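 The calls were made as follows: active = viability at or under a set limit in both replicates, limit being median viability minus 3 SD (cut at about 48% in these data, passing the limit was not always enough); inconclusive = at or under the limit in just one replicate; inactive = at or above the limit in both replicates.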

Assay: H69AR cell proliferation blockers – human, duplicate replicates, primary screen (AID 580);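 also: 100% = mean luminescence of untreated wells and 0% = no signal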
Details: H69AR lung tumor cells viability, ATP luminescence, 72 h; at 10 µM; active compounds read low

Row | Structure (SMILES) | viability
1 | CP(=O)(Nc1ccccn1)Oc1ccccc1 (stereo not given) | inactive: 100%
2 | CP(=O)(Nc1ccc2c(c1)OCCO2)Oc1ccccc1 (stereo not given) | inactive: 87.5%
3 | CN(C)CCOC(=O)C(O)(c1ccccc1)C1CCCCC1 (stereo not given) | inactive: 93.2%
4 | Cc1ccc(C)c(NP(C)(=O)Oc2ccccc2)c1 (stereo not given) | inactive: 91.4%
5 | CP(=S)(Nn1cnnc1)Oc1ccccc1 (stereo not given) | inactive: 83.6%
